{
  "source": "patent US9980966B2",
  "about": "“Combinations of cancer therapeutics” (Merck Patent GmbH, priority 2014, dated 2018)",
  "test_system": "Her2+ patient-derived breast model \"CTG-0033\"",
  "test": "Patient derived xenograft model of breast cancer, tumor volume efficacy study",
  "assay_type": "in vivo, mice",
  "settings": "Day 55; Herceptin 30 mg/kg loading dose and 15 mg/kg maintenance dose QW IV",
  "from_the_text": "Female nude (Harlan; nu/nu) between 5-7 weeks were implanted subcutaneously with tumor fragments from the Her2+ patient-derived breast model “CTG-0033” (passage 3, i.e. the model has been serially passaged/grown from the original host 3 times) harvested from host animals. When host tumors reached 1-1.5 cm^3, tumors were harvested for re-implantation into animals to be used for the efficacy study. When the CTG-0033 (passage 4) tumors reached approximately 190 mm^3; animals were randomized by tumor volume into treatment or control groups (n=10) and dosing was initiated on Day 0. Treatments were Vehicle (Saline), Compound A 30 mg/kg QD (daily) PO (per oral), Herceptin (30 mg/kg loading dose and 15 mg/kg maintenance dose) QW (per week) IV (intravenous), and Compound A 30 mg/kg QD PO in combination with Herceptin 15 mg/kg QW IV. Tumor volumes were recorded twice per week. Vehicle treatment group was terminated at Day 55 due to large tumors. The other treatments were stopped at Day 75 and tumors were allowed to grow back for over 2 months with mice receiving no treatment. Two animals died in this study. One animal in the Compound A group died at day 9 due to a suspected gavage error and the other in the Compound A+Herceptin group due to human error.",
  "data": [
    {"substance": "Herceptin: recombinant DNA-derived humanized monoclonal IgGI kappa antibody that binds to the extracellular domain of the HER2 receptor [reference compound]", "values": [
      {"measurement": "% T/C", "value": 37, "unit": "%"}
    ]}
  ]
}
